The target in this assay is T1, novel mammalian opioid receptor (MSOR, LC132) (Rattus norvegicus, UniProt P35370).
T1 construct: The entire coding region of the receptor cDNA insert was subcloned in to the RcRSV vector; expressed in transfected cells
Type of assay: binding.

Chains of the proteins cited; added tags and fusions are not shown. Lines headed by an entry give the natural chain unless they say otherwise; changes in a name come on top.
UniProt P35370: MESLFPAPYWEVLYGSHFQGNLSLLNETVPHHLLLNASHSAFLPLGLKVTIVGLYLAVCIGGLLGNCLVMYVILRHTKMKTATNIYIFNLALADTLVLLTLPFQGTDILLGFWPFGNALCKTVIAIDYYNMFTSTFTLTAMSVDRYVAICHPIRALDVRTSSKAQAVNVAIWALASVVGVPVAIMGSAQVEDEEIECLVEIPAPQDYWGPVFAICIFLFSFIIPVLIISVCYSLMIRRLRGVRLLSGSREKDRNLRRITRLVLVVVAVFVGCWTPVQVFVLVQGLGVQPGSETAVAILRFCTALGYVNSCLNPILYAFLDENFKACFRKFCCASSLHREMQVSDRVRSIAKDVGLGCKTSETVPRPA

Take “c[D-penicillamine^2, Dpenicillamine^5]enkephalin [DPDPE]”: the “specific binding of the radioactively-labeled opioid agonist or antagonist” value is “no specific binding”.

Source of the values: patent publication US6406866B1 (OREGON HEALTH SCIENCES UNIVERSITY, dated 2002).
